Data: US20240262833A1, “FUSED HETEROCYCLIC DERIVATIVES AS NEGATIVE ALLOSTERIC MODULATORS OF MGLU7 RECEPTOR” (Addex Pharma S.A., priority 2021, published 2024)

The chains behind the UniProt entries cited, without tags or fusion partners. Residues count along the entry.
UniProt Q14831, 35-922 isoform 2 limits assumed: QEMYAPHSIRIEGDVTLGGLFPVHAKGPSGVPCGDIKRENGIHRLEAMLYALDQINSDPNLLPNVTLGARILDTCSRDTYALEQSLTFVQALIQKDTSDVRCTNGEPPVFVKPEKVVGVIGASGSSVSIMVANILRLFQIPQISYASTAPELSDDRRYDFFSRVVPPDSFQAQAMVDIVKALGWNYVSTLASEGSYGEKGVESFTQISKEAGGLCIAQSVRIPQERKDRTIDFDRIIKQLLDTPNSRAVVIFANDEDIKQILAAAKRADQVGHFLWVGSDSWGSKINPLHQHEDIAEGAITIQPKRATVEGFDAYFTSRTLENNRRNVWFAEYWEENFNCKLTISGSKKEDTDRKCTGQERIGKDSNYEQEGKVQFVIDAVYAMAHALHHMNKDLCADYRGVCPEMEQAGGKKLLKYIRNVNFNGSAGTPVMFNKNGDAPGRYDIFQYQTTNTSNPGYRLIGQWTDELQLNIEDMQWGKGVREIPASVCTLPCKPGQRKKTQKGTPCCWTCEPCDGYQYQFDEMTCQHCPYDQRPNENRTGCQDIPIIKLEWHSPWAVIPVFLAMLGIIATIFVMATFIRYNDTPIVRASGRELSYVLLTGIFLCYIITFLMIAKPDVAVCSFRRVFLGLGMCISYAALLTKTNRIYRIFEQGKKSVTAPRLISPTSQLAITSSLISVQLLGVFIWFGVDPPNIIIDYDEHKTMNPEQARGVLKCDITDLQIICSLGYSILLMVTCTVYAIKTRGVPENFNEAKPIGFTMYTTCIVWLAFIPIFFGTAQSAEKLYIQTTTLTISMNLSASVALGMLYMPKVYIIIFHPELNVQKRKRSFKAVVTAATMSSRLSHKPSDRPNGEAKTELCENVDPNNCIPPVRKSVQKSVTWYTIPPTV

Target: human metabotropic glutamate 7 receptor (hmGlu7) (Homo sapiens, UniProt Q14831)
Assay: mGlu7 assay on HEK-expressing human mGlu7: fluorescent cell based Ca2+ mobilization assay (FLIPR), inhibition of EC80 L-AP4 response
Details: read-out: Ca2+ Flux (mean IC50); HEK-293 cells expressing hmGlu7; EC80 L-AP4 stimulation; mean of at least three independent experiments in duplicate
Excerpt: mGlu7 Assay on HEK-Expressing Human mGlu7
The cDNA encoding the human metabotropic glutamate 7 receptor (hmGlu7), (accession number NM_181874.2, NCBI Nucleotide database browser), was subcloned into an expression vector containing also the hygromycin resistance gene. In parallel, the cDNA encoding a G protein allowing redirection of the activation signal to intracellular calcium flux was subcloned into a different expression vector containing also the Puromycin resistance gene. Transfection of both these vectors into HEK293 cells with PolyFect reagent (Qiagen) according to supplier's protocol, and hygromycin and puromycin treatment allowed selection of antibiotic resistant cells which had integrated stably one or more copies of the plasmids. Positive cellular clones expressing hmGlu7 were identified in a functional assay measuring changes in calcium fluxes in response to glutamate and L-AP4 or known mGlu7 orthosteric antagonists. […]
After 10 s of basal fluorescence recording, various concentrations of the compounds of the invention were added to the cells. Changes in fluorescence levels were first monitored for 180 s in order to detect any agonist activity of the compounds. […]

IC50 [nM] | SMILES
100 to 1000 | CCOC(=O)c1cccc(-n2c(C)c3cnn(-c4ccccc4)c(=O)c3c2C)c1
1000 to 10000 | COc1cccc(-n2c(C)c3c(C)nn(-c4ccccn4)c(=O)c3c2C)c1
